Measured values published in PubChem BioAssay AID1645870 (National Center for Advancing Translational Sciences (NCATS), 2021).
The entries are a selection whose mix differs from that of the whole data set. Records with an inconclusive call do not appear. Activity calls are given as the source filed them. Calls follow the shape of the dose curve; as a rule, active = well fitted inhibition curve with a large enough effect; inconclusive = small, poorly fitted or top-dose-only effect; inactive = flat fitted curve, though single readings scatter.

Protein sequences, listed by entry. Tags and fused reporters are not part of them.
UniProt Q9BV86, whole entry: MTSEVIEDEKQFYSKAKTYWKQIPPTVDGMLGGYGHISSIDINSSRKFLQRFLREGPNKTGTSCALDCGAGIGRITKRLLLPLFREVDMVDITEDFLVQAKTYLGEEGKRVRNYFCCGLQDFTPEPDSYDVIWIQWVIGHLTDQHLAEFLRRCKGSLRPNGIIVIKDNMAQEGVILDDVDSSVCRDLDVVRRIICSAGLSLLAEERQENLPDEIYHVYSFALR

biological target: N-terminal Xaa-Pro-Lys N-methyltransferase 1 (Homo sapiens) (UniProt Q9BV86); experiment: Primary qHTS for Inhibitors of N-terminal methyltransferase 1 (NTMT1): MTaseGlo Assay; conditions: NTMT1 MTase-Glo SAH luminescence, purified enzyme; at 57.5 µM (top of the series);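 also: plate controls were DMSO vehicle for no effect and no enzyme for full effect; nearly all actives have a fitted effect of over 65% in size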
Excerpt: Assay Submitter (PI): Rong Huang Ph.D.
Purdue University, West Lafayette, IN 47907
The N-terminal methytransferase 1 is the first methyltransferase that methylates protein alpha-N-amines and plays an important role in regulating cell mitosis, chromatin interactions and DNA repair. It is observed to be over-expressed in various cancer patient tissues like malignant melanoma and colorectal cancer tissues. Knockdown of NTMT1 in cancer cells causes cell mitotic defects and enhances sensitivity to DNA damaging chemotherapeutics. […] These critical cellular processes in which NTMT1 is implicated, coupled with emerging links to cellular dysfunction, strengthen the inference that NTMT1 is a compelling novel anticancer target. […] To address this unmet need, a panel of assay is created and established to enable quantitative high-throughput screening (qHTS) for novel, potent, and selective small molecule NTMT1 inhibitors. […]
MTaseGlo Assay is a luminescence screen that measure the activity of methyltransferases based on the reaction product S-adenosyl homocysteine (SAH). […]
8; Reagent; 5 uL; Dispense 5 uL of 1x MTase-Glo Detection Solution (R) to allow for ADP to be converted to ATP which was then detected with a luciferase reaction. […]
11; Detection; Luminescence; Plates were read on ViewLux detector (PerkinElmer). […]

Row | Compound | activity change, negative = inhibition
1 | CN(CCCl)CCCl | inactive: 14.9%
